The Ki is the dissociation constant of the complex between target and ligand, obtained from inhibition or displacement. Low readings indicate higher affinity, high ones lower affinity.

In patent US20110171291A1, “PATHOLOGICALLY-ACTIVATED THERAPEUTICS” (Sanford-Burnham Medical Research Institute, priority 2010, published 2011) one finds Ki data, which are given here for one compound.

This assay addresses T1, NMDAR-coupled ion channel (Rattus norvegicus, UniProt P35439).
T1 construct: whole-cell recording of an NMDA-evoked current from a solitary neuron obtained with a patch electrode; endogenous in cells; host or cells: solitary neuron
The assay can be described thus: Whole-cell patch-electrode recording of NMDA-evoked current: kinetics of memantine open-channel block. It is filed as cell-based.

Turning to `CC12CC3CC(C)(C1)CC(N)(C3)C2` [memantine], the Ki was about 1000 nM.
